{"source": "patent US20080195349A1", "about": "“Calorimetric Measuring Device” (Vivactis N.V., priority 2005, published 2008)", "tested_on": "glucoamylase", "details": "enzyme concentration about 66.7 μM, maltose 27 mM; fit to measured curve (FIG. 3)"}
{"smiles": "OC[C@H]1O[C@H](O[C@H]2[C@H](O)[C@@H](O)C(O)O[C@@H]2CO)[C@H](O)[C@@H](O)[C@@H]1O", "note": "(mixture of isomers) [maltose]", "values": [{"measurement": "Km", "result": 2610, "unit": "µM"}, {"measurement": "kcat", "result": 1.22, "unit": "s⁻¹"}]}
